Drawing on patent US20240000957A1 (published 2024), this text covers Ki for 2 molecules.

Protein sequences, listed by entry. Tags and fused reporters are not part of them. Residues count along the entry.
UniProt P29317, 24-537: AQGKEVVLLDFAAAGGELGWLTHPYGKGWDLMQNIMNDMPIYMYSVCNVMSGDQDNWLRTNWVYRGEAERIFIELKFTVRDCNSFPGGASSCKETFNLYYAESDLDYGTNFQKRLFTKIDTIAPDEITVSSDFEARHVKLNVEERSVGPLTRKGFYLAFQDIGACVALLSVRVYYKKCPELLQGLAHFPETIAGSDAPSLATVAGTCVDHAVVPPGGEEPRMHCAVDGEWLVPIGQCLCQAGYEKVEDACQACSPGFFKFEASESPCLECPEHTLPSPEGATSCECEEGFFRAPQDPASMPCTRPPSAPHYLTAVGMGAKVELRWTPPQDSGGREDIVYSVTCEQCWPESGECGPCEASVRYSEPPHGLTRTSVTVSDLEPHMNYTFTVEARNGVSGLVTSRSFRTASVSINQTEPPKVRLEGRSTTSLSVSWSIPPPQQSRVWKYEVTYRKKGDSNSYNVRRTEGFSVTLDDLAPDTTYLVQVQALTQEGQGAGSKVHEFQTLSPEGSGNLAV

The target of the test is T1, Human EphA2 (Ecto), C-terminal polyHis (Human, UniProt P29317 24-537).
T1 construct: extracellular domain; R&D systems 3035-A2 or in-house
Description: FP competition vs Reference Compound C.

B1: Compound 80 (peptide)
peptide: RHDCPLVNPLCLLPGWTCA
modifications: TATA scaffold on the 3 Cys
For B1, the Ki worked out at 7.11 nM.

B2: Compound 83 (peptide)
peptide: ACPLVNPLCLAPGWTCSRS
modifications: TATA scaffold on the 3 Cys
In turn, B2 returned a Ki of 7.05 nM.

As usually defined, the Ki is the equilibrium dissociation constant of an inhibitor or competing ligand from its target. A high value points to a looser hold on the target.
